In general, IC50 refers to the concentration that gives 50% inhibition.

Each structure is given as a SMILES string.

The target of experiment [1] is Kappa-type opioid receptor (Cavia porcellus) (UniProt P41144). Kind of experiment: Inhibitory activity for kappa opioid receptor.
Experiment [2] addresses Kappa-type opioid receptor (Cavia porcellus, UniProt P41144). Kind of experiment: Inhibition of Opioid receptor kappa 1 binding. The method in brief:
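Kappa opioid radioreceptor binding in guinea pig brain homogenate with 3 nM [3H]U69,593 as radioligand, incubated 2.5 h at 25°C. Library mixtures were screened at 4 μg/mL. Data were normalized to percent inhibition using background and total binding.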

On to `C[C@H]1CN=C2N(CCC3CC4CCC3C4)[C@@H](C3CCCCC3)CN21` (some centres not stated), for which half-maximal inhibition in experiment [1] (IC50) was put at 4420 nM. In the case of `COc1ccc(C[C@H]2CN3C(=NC[C@H]3C3CCCCC3)N2CC2CCC(C)CC2)cc1` (some centres not stated), the IC50 in experiment [2] came out at 2970 nM; in experiment [1] it was 804 nM.

Turning to `COc1ccc(C[C@H]2CN3C(=NC[C@@H]3C3CCCCC3)N2C(C)C23CC4CC(CC(C4)C2)C3)cc1` (some centres not stated), the 50% inhibitory concentration (IC50) in experiment [2] came out at 1160 nM; in experiment [1], 4920 nM. Take `CC1CCC(CN2C3=NC[C@H](C4CCCCC4)N3C[C@@H]2C2CCCCC2)CC1` (some centres not stated): in experiment [1], the IC50 amounted to 365 nM. In other words, the sub-micromolar range.

Consider `COc1ccc(C[C@H]2CN3C(=NC[C@H]3C3CCCCC3)N2C(C)C23CC4CC(CC(C4)C2)C3)cc1` (some centres not stated), for which the IC50 in experiment [1] is more than 10000 nM.

With `COc1ccc(C[C@@H]2CN3C(=NC[C@H]3C3CCCCC3)N2C(C)C23CC4CC(CC(C4)C2)C3)cc1` (some centres not stated), the 50% inhibitory concentration (IC50) in experiment [2] came to 3180 nM. Compound `COc1ccc(C[C@@H]2CN3C(=NC[C@@H]3C3CCCCC3)N2C(C)C23CC4CC(CC(C4)C2)C3)cc1` (some centres not stated) returned a half-inhibitory concentration (IC50) in experiment [1] of more than 10000 nM. Take `CC1CCC(CN2C3=NC[C@@H](C4CCCCC4)N3C[C@@H]2C2CCCCC2)CC1` (some centres not stated): the IC50 in experiment [1] is 1140 nM.

For `COc1ccc(C[C@@H]2CN3C(=NC[C@@H]3C)N2CC2CCC(C)CC2)cc1` (some centres not stated), the IC50 in experiment [1] was determined as 425 nM. Turning to `CC(C)C[C@@H]1CN2C(=NC[C@@H]2C2CCCCC2)N1CCC1CC2CCC1C2` (some centres not stated), the IC50 in experiment [1] was determined as 827 nM. Same read-out and setting: next, `COc1ccc(C[C@H]2CN3C(=NC[C@@H]3C3CCCCC3)N2CC2CCC(C)CC2)cc1` (some centres not stated): 336 nM. Still for that read-out and setting: then `CC(C)C[C@@H]1CN2C(=NC[C@H]2C2CCCCC2)N1CCC1CC2CCC1C2` (some centres not stated), with 359 nM.

Turning to `COc1ccc(C[C@@H]2CN3C(=NC[C@H]3C3CCCCC3)N2CC2CCC(C)CC2)cc1` (some centres not stated), half-maximal inhibition in experiment [1] (IC50) was put at 362 nM. With `COc1ccc(C[C@H]2CN3C(=NC[C@@H]3C)N2C(C)C23CC4CC(CC(C4)C2)C3)cc1` (some centres not stated), the IC50 in experiment [2] is 3750 nM; in experiment [1] it was 1520 nM. Turning to `COc1ccc(C[C@@H]2CN3C(=NC[C@@H]3C)N2C(C)C23CC4CC(CC(C4)C2)C3)cc1` (some centres not stated), the IC50 came to 2210 nM in experiment [2] and 238 nM in experiment [1]. The like results for `COc1ccc(C[C@H]2CN3C(=NC[C@@H]3C)N2CCC2CC3CCC2C3)cc1` (some centres not stated) were, in that order, 3010 nM and 185 nM. In experiment [1], `CC(C)C[C@@H]1CN2C(=NC[C@@H]2C)N1CC1CCC(C)CC1` (some centres not stated) gave a 50% inhibitory concentration (IC50) of 6480 nM.

In the case of `COc1ccc(C[C@H]2CN3C(=NC[C@@H]3C)N2CC2CCC(C)CC2)cc1` (some centres not stated), the IC50 in experiment [2] worked out at 1790 nM; in experiment [1], 1570 nM. As to `COc1ccc(C[C@@H]2CN3C(=NC[C@@H]3C3CCCCC3)N2CC2CCC(C)CC2)cc1` (some centres not stated), the half-inhibitory concentration (IC50) amounted to 2330 nM in experiment [2] and 369 nM in experiment [1]. Consider `COc1ccc(C[C@@H]2CN3C(=NC[C@@H]3C)N2CCC2CC3CCC2C3)cc1` (some centres not stated), for which the half-maximal inhibitory concentration (IC50) in experiment [1] worked out at 85 nM.

Values taken from ChEMBL document CHEMBL1132386, “Mixture-based synthetic combinatorial libraries” (J Med Chem, 1999).
